## Measured affinities in a library of Ab-14 light chain variants

Reference: Li et al. 2023, doi:10.1038/s41467-023-39022-2. File: FLAb, binding data.

Target: peptide PDVDLGDISGINAS, taken from heptad repeat 2 (HR2) of SARS-CoV-2 spike.

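The variants were designed computationally from a first round of random CDR variants and then made and measured. Their group label is 14L_En_HC (En: ensemble of fine-tuned language models; HC: hill climbing; a sequence that several methods proposed may carry one label only). The assay is AlphaSeq: two haploid yeast populations carry antibody and antigen on their surface. After mating in shaken culture at 30 °C for 16 h, diploids were selected and their barcode pairs sequenced. Read counts were normalised to the haploid input and turned into Kd by a linear fit to BCL2-family pairs of known affinity, for each replicate. Each pool was mated in six replicate cultures.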

Ab-14 is the parent antibody, in scFv form: VH, then the linker GGGGSGGGGSGGGGS, then VL. The heavy chain is unchanged in all variants.
VH: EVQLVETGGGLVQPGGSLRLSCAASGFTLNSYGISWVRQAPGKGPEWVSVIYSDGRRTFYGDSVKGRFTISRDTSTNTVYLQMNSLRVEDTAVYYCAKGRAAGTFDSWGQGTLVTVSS
VL: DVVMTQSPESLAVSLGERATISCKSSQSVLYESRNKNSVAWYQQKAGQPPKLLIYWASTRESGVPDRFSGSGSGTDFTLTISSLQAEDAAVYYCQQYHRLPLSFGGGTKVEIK

The parent's light chain CDRs are KSSQSVLYESRNKNSVA, WASTRES, QQYHRLPLS; each variant's own CDRs replace them letter for letter. Numbers give log10(Kd / nM), so 0 is 1 nM and 3 is 1 µM. Smaller is tighter. A mean of the replicates is given; it leaves out those without a signal. "n.d." marks a missing value. The strain was present, yet no cells mated with the target were sequenced in that replicate, which points to weak or no binding. A sequence measured in both rounds can read differently, since the two assays cover different ranges. As a blank, each scFv also met three strains without target: over all light chain designs, 4% of these pairings were detected, typically at 2.64 and seldom below 1.59. The control count says in how many pairings with the empty strains this scFv gave a signal, with their mean in brackets. In the paper, a design with two or fewer of six values counts as a poor binder. Of ten entries with the parent sequence, four were seen in most replicates (averages 0.34 to 2.37), three in one and three in none, so single entries are noisy.

| CDR-L1 | CDR-L2 | CDR-L3 | log10 Kd, replicates | log10 Kd (nM), mean | empty controls |
|---|---|---|---|---|---|
| QLGASHDMTSKNKNSVA | EQSTREN | QQYHRLPLS | 0.89 0.56 0.65 0.44 0.32 0.64 | 0.58 | 3 of 18 (3.15) |
| MISQMFEGLSTSKNPVA | QVSTRCE | QQYHRLPLS | 1.53 2.06 1.63 3.31 2.07 2.12 | 2.12 | 0 of 18 |
| TISTSAQTESHNKNSVA | DLNVRGS | QQYDRLPLS | 0.66 0.66 0.68 0.98 0.65 0.42 | 0.67 | 1 of 18 (2.95) |
| KISMMSTIESITHNSVA | QTSTRES | QQYDRLPLS | 0.73 0.46 0.36 0.07 -0.12 0.34 | 0.31 | 0 of 18 |
| NVGQSTDGESRNKNSVA | HQSTRED | QHYHRLPLS | 0.05 0.44 0.18 0.32 0.52 0.41 | 0.32 | 0 of 18 |
| TIGDVTRMESNKKSSIA | DMSNRAA | QQYHRLPIS | 1.06 0.67 0.84 1.30 1.16 1.83 | 1.14 | 1 of 18 (2.66) |
| KLSQLFYKESKQKNNVA | EMTTRGS | QQYDRLPLS | 0.25 0.29 0.03 0.20 0.16 0.16 | 0.18 | 0 of 18 |
| SLAESQHMESRNKNSVA | DNSTRES | QHYHRLPLS | n.d. n.d. n.d. n.d. n.d. n.d. | n.d. | 1 of 18 (2.34) |
| MMSYGWLYGSRNKRNVA | DHETRED | QQYDRLPLS | 0.47 0.28 0.27 0.10 0.25 0.17 | 0.26 | 0 of 18 |
| KLQVSYLFESLEKNSIA | ENSTREK | QHYHRLPLS | 1.34 1.75 2.44 1.76 1.86 n.d. | 1.83 | 3 of 18 (3.05) |
| TISQSWLVESRNKNNVA | EMSTREN | QDYDRLPLS | 0.90 0.35 0.51 0.40 0.79 0.79 | 0.62 | 2 of 18 (2.49) |
| TISQSTNMTSRGKNSVA | QAEMRES | QQYDRLPLS | 1.27 2.37 1.31 1.37 n.d. 1.84 | 1.63 | 0 of 18 |
| KLPQSTMQENVSKNSVA | ELSTRGS | QQYHRLPLS | 0.61 1.18 0.53 0.86 0.75 0.85 | 0.79 | 2 of 18 (2.58) |
| TISASANYESTNKNSVA | ELTTRGS | QQYERLPLS | n.d. 2.09 n.d. n.d. n.d. 3.14 | 2.62 | 0 of 18 |
| TLSQSMDMTSRNKNSVA | DLTTREN | QQYHRLPLS | -0.36 -0.43 -0.66 -0.61 -0.44 -0.19 | -0.45 | 1 of 18 (3.52) |
| KLYQNVGTMSHNKQAIA | DMERRED | QQYHRLPLS | -0.04 -0.03 -0.14 -0.36 -0.13 0.00 | -0.12 | 4 of 18 (2.91) |
| KLSQVTHSESKNKNSIA | EMVTREV | QQYDRLPLS | 0.79 0.74 0.62 0.81 0.83 0.78 | 0.76 | 1 of 18 (2.63) |
| NVGQMMDGESRNKNSVA | HQSTRED | QHYHRLPLS | 0.92 0.31 0.63 0.65 0.35 1.39 | 0.71 | 0 of 18 |
| KLREVQHVESKQRNNVA | DNDTREY | QDYYRLPLS | 2.19 2.47 n.d. 2.81 1.83 2.78 | 2.42 | 0 of 18 |
| HVSESVFAQSKVKNSVA | ENSTRES | QQYDRLPLS | n.d. n.d. 3.08 3.14 2.13 2.96 | 2.83 | 1 of 18 (2.21) |
| TLTGVMDMTSRNVNSVA | DLTTRGN | QQYHRLPLS | 0.25 0.38 0.36 0.43 0.39 0.52 | 0.39 | 3 of 18 (3.10) |
| KLSQYVGGETRNKSSLA | DNNTRCD | QQYERLPLS | n.d. n.d. n.d. n.d. 2.87 n.d. | 2.87 | 0 of 18 |
| QLLMATMQGWYNRNSVA | HAETRED | QSYHRLPLS | 1.98 0.97 1.35 1.29 1.72 1.36 | 1.45 | 1 of 18 (3.15) |
| TLTQVQGMESHNMDNVA | DLSTRGS | QQYHRLPLS | 0.06 0.14 0.17 0.24 -0.01 0.04 | 0.11 | 2 of 18 (2.13) |
| MISDLTYYGLRNMNSVA | DLSTRGN | QQYDRLPLS | 0.44 0.49 0.61 0.64 0.40 0.49 | 0.51 | 0 of 18 |
| MIAESVGYQSRNKNSVA | DNSTREH | QCYDRLPLS | 2.85 2.10 2.11 2.65 2.58 2.77 | 2.51 | 1 of 18 (1.73) |
| KLRQSTVIESFNKNNVA | EMTTRES | QSYDRLPLS | 2.40 2.60 n.d. 1.81 2.67 2.34 | 2.36 | 0 of 18 |
| IVSQSVLGESRNINSVA | QTSERNY | QQYDRLPLS | 0.87 0.42 1.12 0.89 0.39 0.84 | 0.76 | 1 of 18 (1.68) |
| TIGSATLEESRNKNSVA | EMSLREN | QSYNRLPLS | n.d. n.d. 2.91 2.65 n.d. 2.91 | 2.83 | 1 of 18 (2.44) |
| MISDMGLHDSRIQNSVA | NNSTREV | QQYDRLPLS | 1.83 1.36 1.43 1.75 2.35 1.14 | 1.64 | 2 of 18 (2.46) |
| IISQMMLYESATHNSIA | QTSTREE | QQYHHLPLS | 0.96 1.35 1.43 0.79 0.91 1.41 | 1.14 | 1 of 18 (3.81) |
| KLSATYRFESQNKSNIA | EMTTRES | QCYHRLPLS | n.d. n.d. 1.82 n.d. n.d. n.d. | 1.82 | 0 of 18 |
| IISWVDAYESRNKNSIA | DQSTRGS | QQYDRLPLS | 1.03 1.03 0.65 0.87 0.87 0.91 | 0.90 | 0 of 18 |
| IISQVDGYLMHQTNSIA | DQTTRGS | QQYDRLPLS | 1.82 2.44 1.37 1.42 1.18 2.34 | 1.76 | 0 of 18 |
| IISQSVMFQQTLINSVA | NAQTRES | QQYHRLPLS | 0.50 0.19 0.28 0.26 0.52 1.08 | 0.47 | 0 of 18 |
| MFSQLMMYGSRNYNSVA | QASTRES | QQYHRLPLI | n.d. 2.71 1.73 1.43 2.28 1.53 | 1.93 | 0 of 18 |
| KLLQNVMTEYRDRNNVA | HMDMRED | QQYWRLPLS | 1.30 1.04 0.96 0.96 1.22 1.26 | 1.12 | 3 of 18 (2.10) |
| MISQSFLIGSFAKNSVA | QTSTRES | QQYDRLPLS | n.d. n.d. n.d. n.d. n.d. n.d. | n.d. | 0 of 18 |
| TIAQMFLGESRNRNSVA | QASTRES | QSYDRLPLS | 0.97 0.96 0.59 0.89 0.69 0.92 | 0.84 | 1 of 18 (2.37) |
| KISMLTRFQQNAKNNIA | EMNRREE | QQYHRLPLS | 0.15 0.15 0.10 0.03 0.14 0.25 | 0.14 | 1 of 18 (2.05) |

Excerpt, the first 4 entries:

| CDR-L1 | CDR-L2 | CDR-L3 | log10 Kd, replicates | log10 Kd (nM), mean | empty controls |
|---|---|---|---|---|---|
| QLGASHDMTSKNKNSVA | EQSTREN | QQYHRLPLS | 0.89 0.56 0.65 0.44 0.32 0.64 | 0.58 | 3 of 18 (3.15) |
| MISQMFEGLSTSKNPVA | QVSTRCE | QQYHRLPLS | 1.53 2.06 1.63 3.31 2.07 2.12 | 2.12 | 0 of 18 |
| TISTSAQTESHNKNSVA | DLNVRGS | QQYDRLPLS | 0.66 0.66 0.68 0.98 0.65 0.42 | 0.67 | 1 of 18 (2.95) |
| KISMMSTIESITHNSVA | QTSTRES | QQYDRLPLS | 0.73 0.46 0.36 0.07 -0.12 0.34 | 0.31 | 0 of 18 |